Literature values as cited in article PMC10060287 (Pharmacological Reports, 2023).

Test system: µ-opioid receptor (µOR)
Conditions: cited from earlier work

Structure (SMILES): CN1CC[C@]23c4c5ccc(O)c4O[C@H]2[C@@H](O)C=C[C@H]3[C@H]1C5 [morphine]
- functional profile: unbiased ligand
